Target: T1, NAE1-UBA3 (NEDD8 E1), wild type (human, UniProt Q13564 1-534; Q8TBC4 1-463)
T1 sequence (looked up) 1: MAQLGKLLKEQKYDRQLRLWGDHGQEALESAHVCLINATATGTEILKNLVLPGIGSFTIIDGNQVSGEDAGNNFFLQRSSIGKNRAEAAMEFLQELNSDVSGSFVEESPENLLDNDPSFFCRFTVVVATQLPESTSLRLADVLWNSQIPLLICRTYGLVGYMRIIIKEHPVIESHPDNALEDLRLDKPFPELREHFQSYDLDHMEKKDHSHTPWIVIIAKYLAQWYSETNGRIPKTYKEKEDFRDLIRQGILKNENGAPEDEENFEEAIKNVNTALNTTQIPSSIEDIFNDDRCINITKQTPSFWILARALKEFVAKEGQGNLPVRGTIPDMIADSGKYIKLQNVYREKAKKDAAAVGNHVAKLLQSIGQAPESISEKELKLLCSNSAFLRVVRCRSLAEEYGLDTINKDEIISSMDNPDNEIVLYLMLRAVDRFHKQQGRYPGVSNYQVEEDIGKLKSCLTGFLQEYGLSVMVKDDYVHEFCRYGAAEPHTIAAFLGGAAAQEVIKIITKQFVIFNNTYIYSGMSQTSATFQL
T1 sequence (looked up) 2: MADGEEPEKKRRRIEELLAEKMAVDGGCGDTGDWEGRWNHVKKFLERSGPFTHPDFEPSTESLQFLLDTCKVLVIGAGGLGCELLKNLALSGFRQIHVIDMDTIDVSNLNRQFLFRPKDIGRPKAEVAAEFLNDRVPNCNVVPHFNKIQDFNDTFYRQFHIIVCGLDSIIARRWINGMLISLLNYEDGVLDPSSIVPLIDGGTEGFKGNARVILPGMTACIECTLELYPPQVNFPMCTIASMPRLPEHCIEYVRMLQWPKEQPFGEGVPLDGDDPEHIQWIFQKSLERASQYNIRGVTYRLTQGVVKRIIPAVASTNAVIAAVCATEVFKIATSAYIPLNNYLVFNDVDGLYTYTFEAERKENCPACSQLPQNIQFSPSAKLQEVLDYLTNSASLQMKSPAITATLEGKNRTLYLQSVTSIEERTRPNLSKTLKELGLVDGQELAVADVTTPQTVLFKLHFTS
Test: cell-based or functional assay

Km of 32P-NEDD8 transfer from E1 to E2, against wild-type UBE2F: ~18 fold
B1: UBE2F^core (domain or fragment, human)
chain: ATASDSTRRVSVRDKLLVKEVAELEANLPCTCKVHFPDPNKLHCFQLTVTPDEGYYQGGKFQFETEVPDAYNMVPPKVKCLTKIWHPNITETGEICLSLLREHSIDGTGWAPTRTLKDVVWGLNSLFTDLLNFDDPLNIEAAEHHLRDKEDFRNKVDDYIKRYAR

From PMC2725360 (Molecular cell, 2009)
